Assay results as given in US12139488B2, “Pyrido[3,2-d]pyrimidine compounds uses thereof for treating a proliferative disease” (Universite de Montreal, priority 2021, dated 2024).

Columns and labels:
[1] = test system: pERK in HepG2 cells (NRAS-Q61L); test: Phospho-ERK inhibition (AlphaLISA), HepG2; conditions: for HepG2 pERK % Ymin: HepG2, value in parentheses; for IC50: read-out: HepG2 pERK IC50, HepG2
Protocol: (§1) All cancer cell lines (A375, A101D, A2058, RKO, HT29 SK-MEL 30, IPC298, HepG2, HCT-116, Lovo, SWV620, SW480, NCI-H358, NCI-H2122, Calu-6, NCIH2087, NCIH1755, NCIH1666 and Mewo) were obtained from ATCC and cultured in RPMI-1640 medium (Gibco) supplemented with 5% heat inactivated fetal bovine serum (FBS, Wisent) at 37° C. under 5% CO2. Cells were maintained in T175 flasks (Greiner). They were passaged by removing the culture medium, washing once in 10 mL of room temperature Phosphate Buffered Saline (PBS; Wisent) and incubating at 37° C. with 2 mL of 0.05% Trypsin (Thermo-Fisher). Trypsin was then inactivated by adding complete growth medium and the cells were then replated in a T175 culture dish at the appropriate dilution. All cell lines were routinely tested for mycoplasma contamination. Tissue type and mutational status of each cell line can be found in Table B.
(§2) AlphaLISA® SureFire® Ultra™ p-ERK 1/2 (Thr202/Tyr204) analysis was conducted on cells plated in 100 μL of complete RPMI-1640 growth medium in 96-well flat-bottomed transparent dishes (Costar) at a density indicated in Table C. Cells were maintained overnight at 37° C. under 5% CO2 before treatment with compounds' dilution series for one hour. The cell density in cells/cm^2 corresponds to cell number divided by the area of one well of a 96-well plate ([…]).
(§3) In a dilution series 100 μL/well of test substance dilution prepared in complete RPMI-1640 growth media was added to the cells. The dilution series is selected so that ten concentrations cover a range from 10 μM to 0.33 nM. If necessary the initial concentration of 10 μM is increased to 100 μM or lowered to 1 μM (as in the case of A375 and H1666 cells, which are generally more sensitive to the compounds) and further dilution is carried out accordingly. The final concentration of DMSO in the assay is set at 0.5%.
(§4) After treatment, media was removed and cells were lysed in 50 μL of 1× AlphaScreen Ultra Lysis Buffer (Perkin Elmer). The AlphaLISA® SureFire® Ultra™ p-ERK 1/2 (Thr202/Tyr2O4) (PerkinElmer) reactions were performed with 5 μL of cell lysate according to the manufacturer's specifications in 384-well proxyplates (Perkin Elmer) followed by overnight incubation of the reactions at room temperature in a humidified chamber. After completion of the reactions, the signals were recorded on an EnVision plate reader (Perkin Elmer) using built in AlphaLISA® settings.
(§5) The effect of each compound dilution on the pERK signal was expressed in % inhibition and calculated as follows. An internal 100% inhibition control ([…] trametinib, cat #HY-10999; MedChem Express; CAS #871700-17-3) was included in each plate and used as a measure of pERK background. First, the value obtained for trametinib was subtracted from each data point. The average of DMSO (vehicle) controls (set as 0% inhibition) was established and used to calculate % inhibition: % inhibition=100*(1-((pERK signalcompound)/(pERK signalDMSO)))
(§6) The ability of each compound to inhibit pERK signal was expressed as an IC50 value obtained by plotting the inhibition values for each data point of a dilution series and fitting the obtained curves using a log(agonist) versus response-variable slope (four parameters) function using GraphPadPrism (V7.0) or Dotmatics Screening Ultra platform.
(§7) When present, paradoxical pERK induction is inferred from the negative % inhibition values observed in the pERK IC50 curves of a compound.

[2] = test system: pERK in IPC298 cells (NRAS-Q61L); test: Phospho-ERK inhibition (AlphaLISA), IPC298; conditions: for IPC298 pERK % Ymin: IPC298, value in parentheses; for IC50: read-out: IPC298 pERK IC50, IPC298
Protocol: as §1, §2, §3, §4, §5, §6, §7

[3] = test system: NCIH1755 cells (BRAF G469A); test: Proliferation inhibition (CellTiter-Glo), NCIH1755; conditions: read-out: NCIH1755 Prolif. EC50; NCIH1755, 3 days
Protocol: as §1
(§8) CellTiter-Glo® viability analysis was conducted on cells plated in 100 μL of complete RPMI-1640 growth medium in 96-well flat-bottomed white opaque plates (Greiner or Croning) at a density indicated in Table E (for each CCL, number of cells plated per well of a 96-well plate to perform the CellTiter-Glo® cell viability assay). The cell density in cells/cm^2 would correspond to cell number divided by the area of one well of a 96-well plate (0.32 cm^2). Cells were maintained overnight at 37° C. under 5% CO2 before treatment with compounds' dilution series for 3 days.
(§9) In a dilution series 100 μL/well of test substance dilution prepared in complete RPMI-1640 growth media was added to the cells plated initially in 100 μL of growth media. The dilution series is selected so that ten concentrations cover a range from 10 μM to 0.33 nM. If necessary (as in the case of A375 cells, which were more sensitive to the compounds) the initial concentration of 10 μM is lowered to 1 μM and further dilution is carried out accordingly. The final concentration of DMSO in the assay is set at is 0.5%.
(§10) After 3 days of incubation, the growth media were removed by aspiration and 60 μL of diluted CellTiter-Glo® reagent (10 μL CellTiter-Glo® reagent+50 μL of PBS) was added to each well. Cells were allowed to lyse and to equilibrate in CellTiter-Glo® reagent by 5 min incubation on a plate shaker followed by 10 min incubation at room temperature. Luminescence signals were then acquired on a Synergy Neo2 plate reader (Biotek).
(§11) The effect of each compound dilution on the proliferation of cancer cell lines was expressed in % inhibition and calculated as follows. An internal 100% inhibition control (1 μM of trametinib; cat #HY-10999; MedChem Express; CAS #871700-17-3) was included in each plate and used as a measure of CellTiter-Glo® signal background. The value obtained for trametinib was subtracted from each data point. The average of DMSO (vehicle) controls (set as 0% inhibition) was established and used to calculate % inhibition: % inhibition=100*(1−((CellTiter-Glo® signalcompound)/(CellTiter-Glo® signalDMSO)))
(§12) The ability of each compound to inhibit proliferation was expressed as a EC50 value obtained by plotting the effect values for each data point of a dilution series and fitting the obtained curves using a log(agonist) versus response-variable slope (four parameters) function using GraphPadPrism (V7.0) or Dotmatics Screening Ultra platform.

SW480 cells (KRAS G12D) = test: Proliferation inhibition (CellTiter-Glo), SW480; conditions: read-out: SW480 Prolif. EC50; SW480, 3 days
Protocol: as §1, §8, §9, §10, §11, §12

[4] = test system: SK-MEL30 cells (NRAS-Q61K); test: Proliferation inhibition (CellTiter-Glo), SK-MEL30; conditions: read-out: SK-MEL30 Prolif. EC50; SK-MEL30, 3 days
Protocol: as §1, §8, §9, §10, §11, §12

[5] = test system: pERK in SW480 cells (KRAS G12D); test: Phospho-ERK inhibition (AlphaLISA), SW480; conditions: for SW480 pERK % Ymin: SW480, Table D, value in parentheses; for SW480 pERK % Ymin (lowest value of the IC50 curve): SW480 cells, Ymin above −20% = minimal or no paradoxical activation
Protocol: as §1, §2, §3, §4, §5, §6, §7

O=S(=O)(Nc1ccc(F)c(Nc2ncnc3ccc(-n4cnc5c(N6CCC(O)(C(F)(F)F)CC6)cccc54)nc23)c1F)c1cccc(Cl)c1Cl
HepG2 pERK % Ymin [1]: −7% | IC50 [1]: 30 to 300 nM | IPC298 pERK % Ymin [2]: 2% | IC50 [2]: 30 to 300 nM | EC50 [3]: 300 to 3000 nM | EC50 (SW480 cells (KRAS G12D)): 300 to 3000 nM | EC50 [4]: < 30 nM | SW480 pERK % Ymin [5]: 6% | SW480 pERK % Ymin (lowest value of the IC50 curve) [5]: 6%

COCCOc1cccc2c1nnn2-c1ccc2ncnc(Nc3c(F)ccc(NS(=O)(=O)c4cccc(Cl)c4Cl)c3F)c2n1
HepG2 pERK % Ymin [1]: 26% | IC50 [1]: < 30 nM | IPC298 pERK % Ymin [2]: 13% | IC50 [2]: 30 to 300 nM | EC50 [3]: < 30 nM | EC50 (SW480 cells (KRAS G12D)): 300 to 3000 nM | EC50 [4]: < 30 nM | SW480 pERK % Ymin [5]: −6% | SW480 pERK % Ymin (lowest value of the IC50 curve) [5]: 6%

CS(=O)(=O)C1CCN(c2cccc3c2nnn3-c2ccc3ncnc(Nc4c(F)ccc(NS(=O)(=O)c5cccc(Cl)c5Cl)c4F)c3n2)CC1
HepG2 pERK % Ymin [1]: 4% | IC50 [1]: 30 to 300 nM | IPC298 pERK % Ymin [2]: 8% | IC50 [2]: 30 to 300 nM | EC50 [3]: < 30 nM | EC50 (SW480 cells (KRAS G12D)): > 3000 nM | EC50 [4]: < 30 nM | SW480 pERK % Ymin [5]: 2% | SW480 pERK % Ymin (lowest value of the IC50 curve) [5]: 2%

O=S(=O)(CCCN1CCOCC1)c1cn(-c2ccc3ncnc(Nc4c(F)ccc(NS(=O)(=O)c5cccc(Cl)c5Cl)c4F)c3n2)c2ccccc12
HepG2 pERK % Ymin [1]: 9% | IC50 [1]: 30 to 300 nM | IPC298 pERK % Ymin [2]: 13% | IC50 [2]: < 30 nM | EC50 [3]: 300 to 3000 nM | EC50 (SW480 cells (KRAS G12D)): 300 to 3000 nM | EC50 [4]: < 30 nM | SW480 pERK % Ymin [5]: 4%

COc1ccc(S(=O)(=O)Nc2ccc(F)c(Nc3ncnc4ccc(-n5cc(S(=O)(=O)N(C)CCN(C)C)c6ccccc65)nc34)c2F)c(C)c1F
HepG2 pERK % Ymin [1]: −3% | IC50 [1]: 30 to 300 nM | IPC298 pERK % Ymin [2]: 17% | IC50 [2]: 30 to 300 nM | EC50 [3]: < 30 nM | EC50 (SW480 cells (KRAS G12D)): 300 to 3000 nM | EC50 [4]: < 30 nM | SW480 pERK % Ymin [5]: −3%

CCC1(O)CCN(c2cccc3c2ncn3-c2ccc3ncnc(Nc4c(F)ccc(NS(=O)(=O)c5cccc(Cl)c5Cl)c4F)c3n2)CC1
HepG2 pERK % Ymin [1]: 7% | IC50 [1]: 30 to 300 nM | IPC298 pERK % Ymin [2]: 9% | IC50 [2]: 30 to 300 nM | EC50 [3]: 300 to 3000 nM | EC50 (SW480 cells (KRAS G12D)): 300 to 3000 nM | EC50 [4]: < 30 nM | SW480 pERK % Ymin [5]: 7% | SW480 pERK % Ymin (lowest value of the IC50 curve) [5]: 7%

CN(CCN1CCOCC1)S(=O)(=O)c1cn(-c2ccc3ncnc(Nc4c(F)ccc(NS(=O)(=O)c5cccc(Cl)c5Cl)c4F)c3n2)c2ccccc12
HepG2 pERK % Ymin [1]: 3% | IC50 [1]: < 30 nM | IPC298 pERK % Ymin [2]: 11% | IC50 [2]: 30 to 300 nM | EC50 [3]: 300 to 3000 nM | EC50 (SW480 cells (KRAS G12D)): 300 to 3000 nM | EC50 [4]: < 30 nM | SW480 pERK % Ymin [5]: 6%

Cc1c(F)cccc1S(=O)(=O)Nc1ccc(F)c(Nc2ncnc3ccc(-n4cnc5c(-c6cccnc6)cccc54)nc23)c1F
HepG2 pERK % Ymin [1]: 7% | IC50 [1]: 30 to 300 nM | IPC298 pERK % Ymin [2]: 7% | IC50 [2]: 30 to 300 nM | EC50 [3]: 300 to 3000 nM | EC50 (SW480 cells (KRAS G12D)): 300 to 3000 nM | EC50 [4]: < 30 nM | SW480 pERK % Ymin [5]: 14%

Cc1c(Cl)cccc1S(=O)(=O)Nc1ccc(F)c(Nc2ncnc3ccc(-n4cnc5c(N)cccc54)nc23)c1F
HepG2 pERK % Ymin [1]: 5% | IC50 [1]: 30 to 300 nM | IPC298 pERK % Ymin [2]: 18% | IC50 [2]: 30 to 300 nM | EC50 [3]: < 30 nM | EC50 (SW480 cells (KRAS G12D)): 300 to 3000 nM | EC50 [4]: < 30 nM | SW480 pERK % Ymin [5]: 21%

O=S(=O)(Nc1ccc(F)c(Nc2ncnc3ccc(-n4nnc5ccccc54)nc23)c1F)c1cccc(Cl)c1Cl
HepG2 pERK % Ymin [1]: 11% | IC50 [1]: < 30 nM | IPC298 pERK % Ymin [2]: 2% | IC50 [2]: 30 to 300 nM | EC50 [3]: < 30 nM | EC50 (SW480 cells (KRAS G12D)): 300 to 3000 nM | EC50 [4]: < 30 nM | SW480 pERK % Ymin [5]: −3%

Cc1c(Cl)cccc1S(=O)(=O)Nc1ccc(F)c(Nc2ncnc3ccc(-n4cc(C(=O)N5CCN(C)CC5)c5ccccc54)nc23)c1F
HepG2 pERK % Ymin [1]: 7% | IC50 [1]: 30 to 300 nM | IPC298 pERK % Ymin [2]: 29% | IC50 [2]: 30 to 300 nM | EC50 [3]: 300 to 3000 nM | EC50 (SW480 cells (KRAS G12D)): 300 to 3000 nM | EC50 [4]: < 30 nM | SW480 pERK % Ymin [5]: −1%

Cc1c(F)cccc1S(=O)(=O)Nc1ccc(F)c(Nc2ncnc3ccc(-n4nc(C(=O)N(C)Cc5cccnc5)c5ccccc54)nc23)c1F
EC50 [3]: 300 to 3000 nM | EC50 (SW480 cells (KRAS G12D)): < 30 nM | EC50 [4]: < 30 nM
